Measurements taken from patent publication US20140303188A1, “Substituted Cyclopenta Pyrimidine Bicyclic Compounds Having Antitmitotic And/Or Antitumor Activity And Methods Of Use Thereof” (DUQUESNE UNIVERSITY OF THE HOLY SPIRIT, priority 2008, published 2014).

System: colchicine site on tubulin
Assay: inhibition of [3H]colchicine binding to tubulin
Conditions: 5 μM inhibitor
Method: The effects of designed compounds 10-14 on the polymerization of purified tubulin were evaluated. This allows for the study of the direct interaction of the compounds with their intracellular target. The ability of these compounds to bind to the colchicine site on tubulin was evaluated by measuring inhibition of [^3H]colchicine binding to tubulin. […] It is clear that at 1 and 5 μM concentrations, 13 inhibited the binding of [^3H]colchicine, somewhat more potently than CA4. It is therefore likely that 13 binds in the colchicine site.

For `COc1ccc(/C=C\c2cc(OC)c(OC)c(OC)c2)cc1O` [CA4, combretastatin A-4, reference compound], the “Inhibition of colchicine binding % Inhibition ± SD” value was 99 ± 0.6%.
